Measurements from US6602852B1, “Basic peptides and pharmaceutical compositions containing same” (NST NeuroSurvival Technologies, Ltd., priority 1998, dated 2003).
“Also recorded” adds a separate entry of the source.

Experiment: Pharmacokinetic studies: appearance and disappearance of staining in liver
Assay type: in vivo
Conditions: mice
Experimental: The appearance and disappearance of the compound NST302 from the liver following its injection to mice. Animals treated or untreated with anti-Fas antibody were injected with the NST302 compound, and its detection was tested 5, 15, 20, 30, 60, 90, 120 min after its injection.
While dealing with a biological compound that is destined to be used for diagnostic purposes, the time course that the compound is detectable in the body should be considered. Pharmacokinetics appearance and disappearance of the compound NST302 was examined in the following time intervals: 5, 15, 20, 30, 60, 90, 120 min after injection of the compound (FIG. 9).

**Q.** With “Myristate-KKKKKRFSFKKSFKLSGFSFKKNKKK (SEQUENCE ID NO. 2)-(biotin) [NST302]” as the substance, how does the “liver staining two hours after injection” value read?
**A.** Its value is “no staining was detected; also recorded: no staining was found”.
